The values below come from ChEMBL document CHEMBL4321786, “Discovery of Small Molecule Renal Outer Medullary Potassium (ROMK) Channel Inhibitors: A Brief History of Medicinal Chemistry Approaches To Develop Novel Diuretic Therapeutics” (J Med Chem, 2019).

This experiment can be described thus: Selectivity index, ratio of IC50 for inhibition of GABA receptor (unknown origin) by radioligand displacement assay to IC50 for inhibition of rat ROMK1 expressed in HEK293 cells by Tl+ flux assay. The class given is cell-based.

As for `O=[N+]([O-])c1ccc2nc(COCc3nc4ccc([N+](=O)[O-])cc4[nH]3)[nH]c2c1`, the Ratio IC50 amounted to 25.
